{"source": "paper PMC3759941", "about": "(International Journal of Molecular Sciences, 2013)", "origin": "cited, not measured here", "test_system": "EeAChE", "conditions": "read-out: IC50 values EeAChE; Table 3"}
{"smiles": "ON=Cc1cc[n+](COC[n+]2ccc(C=NO)cc2)cc1", "values": [{"measurement": "IC50", "result": 6.7, "unit": "mM"}]}
